Source: paper PMC6130577, “Rational screening of peroxisome proliferator-activated receptor-γ agonists from natural products: potential therapeutics for heart failure” (Pharmaceutical Biology, 2016)

Sequences of proteins named here, by UniProt entry; tags and fusion partners are left off. Residues count along the entry.
UniProt P37231, 238-503 limits assumed: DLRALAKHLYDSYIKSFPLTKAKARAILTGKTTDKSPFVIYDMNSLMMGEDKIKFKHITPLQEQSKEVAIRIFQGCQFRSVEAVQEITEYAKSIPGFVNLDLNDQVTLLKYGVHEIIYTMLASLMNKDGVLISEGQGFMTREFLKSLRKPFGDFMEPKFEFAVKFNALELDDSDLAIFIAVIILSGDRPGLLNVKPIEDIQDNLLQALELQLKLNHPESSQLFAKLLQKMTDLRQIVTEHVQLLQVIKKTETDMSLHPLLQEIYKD

Biological target: T1, human PPARγ (hPPARγ) (Homo sapiens, UniProt P37231)
T1 construct: expressed in transfected cells; host or cells: CV-1 cells
Experiment: Transactivation reporter assay (chimeric GAL4-PPAR reporter-gene assay in CV-1 cells)
Format: cell-based
Details: percentage of agonistic potency relative to full agonist Pioglitazone at their respective EC50 concentration
Experimental: Briefly, chimeric receptor expression plasmid pcDNA3-hPPARγ/GAL4 was prepared by inserting the yeast GAL4 transcription factor DNA-binding domain adjacent to the hPPARγ LBD domain. The reporter plasmid, p(UAS)5-tk-luc, was generated by inserting five copies of the GAL4 response element upstream of the herpesvirus minimal thymidine kinase promoter and the luciferase reporter gene. The chimeric receptor expression plasmid and reporter plasmid were cotransfected into CV-1 cells. The transfected cells were cultured with or without each tested compound for 48 h and then steady-state luminescence intensity was measured with a microplate luminometer (Turner Biosystems). All compounds were purchased from Sigma-Aldrich and ChemPartner, and dissolved in dimethyl sulfoxide (<0.1% v/v). Each assay was carried out in triplicate.

`CN(CCOc1ccc(CC2SC(=O)NC2=O)cc1)c1ccccn1` (stereo not shown) [Rosiglitazone] was tested, and the Agonistic intensity was 124%.
